The text below walks through data of US4605658A (priority 1983, dated 1986).

≈ marks a conversion by molar mass, not a printed value.

In the test the test system is Parainfluenza. Briefly: microbe, parasite or virus in culture. Format: cell-based. The settings on record: Vero B, read-out: MIC50.

With `Nc1ncnc2c1ncn2C[C@H](O)CO` [(S)--DHPA, 9-(2,3-dihydroxypropyl)adenine, reference compound], the EC50 amounted to 20 µg/mL (≈ 95.6 µM).
